Test results published in patent US8673909B2, “Indole compounds and methods for treating visceral pain” (NeurAxon, Inc., priority 2007, dated 2014).

Key:
[1] = biological target: T1, Nitric oxide synthase (neuronal, human recombinant) nNOS (Homo sapiens, UniProt P29475); assay: nNOS (human) enzyme assay, [3H]-L-arginine to L-citrulline; assay type: biochemical; conditions: Table 15
T1 construct: purchased Axxora LLC ALX-201-068

[2] = biological target: T2, Nitric oxide synthase (endothelial, human recombinant) eNOS (Homo sapiens, UniProt P29474); assay: eNOS (human) enzyme assay, [3H]-L-arginine to L-citrulline; assay type: biochemical; conditions: Table 15
T2 construct: purchased Axxora LLC ALX-201-070

| IC50 [1] [µM] | IC50 [2] [µM] | Structure (SMILES) |
| --- | --- | --- |
| 0.735 | 31.8 | CCNC1CCCC(c2c[nH]c3ccc(NC(=N)c4cccs4)cc23)C1 (single isomer, unassigned) [Compound 23, N-(3-(3-(ethylamino)cyclohexyl)-1H-indol-5-yl)thiophene-2-carboximidamide] |
| 0.264 | 10.8 | CCNC1CCCC(c2c[nH]c3ccc(NC(=N)c4cccs4)cc23)C1 (single isomer, unassigned) [Compound 22, N-(3-(3-(ethylamino)cyclohexyl)-1H-indol-5-yl)thiophene-2-carboximidamide] |
